# Laboratory results from patent US8871751B2, “Compositions and methods relating to nuclear hormone and steroid hormone receptors including inhibitors of estrogen receptor alpha-mediated gene expression and inhibition of breast cancer” (The Board of Trustees of the University of Illinois, priority 2008, dated 2014).
# Chains of the proteins cited; added tags and fusions are not shown.
# UniProt P03372, whole entry: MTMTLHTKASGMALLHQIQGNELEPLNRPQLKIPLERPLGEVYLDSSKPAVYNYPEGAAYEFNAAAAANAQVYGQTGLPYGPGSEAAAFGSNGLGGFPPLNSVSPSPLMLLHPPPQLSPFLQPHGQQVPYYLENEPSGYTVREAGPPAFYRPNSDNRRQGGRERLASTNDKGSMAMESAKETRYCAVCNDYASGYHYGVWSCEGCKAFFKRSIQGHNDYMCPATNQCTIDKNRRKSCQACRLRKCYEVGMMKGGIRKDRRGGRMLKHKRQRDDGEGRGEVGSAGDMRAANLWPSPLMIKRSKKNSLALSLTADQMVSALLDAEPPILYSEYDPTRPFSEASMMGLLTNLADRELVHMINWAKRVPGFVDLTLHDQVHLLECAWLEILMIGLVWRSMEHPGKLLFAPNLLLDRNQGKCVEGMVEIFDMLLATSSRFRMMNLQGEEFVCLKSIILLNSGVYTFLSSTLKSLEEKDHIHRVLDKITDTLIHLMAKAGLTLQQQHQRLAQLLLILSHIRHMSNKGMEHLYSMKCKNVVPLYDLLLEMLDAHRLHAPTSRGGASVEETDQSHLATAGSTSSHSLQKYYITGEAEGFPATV
# Target: ERα (Homo sapiens, UniProt P03372)
# Test: (ERE)3-luciferase reporter gene assay in T47D-KBluc cells
# Type: cell-based
# Parameters: Using a stably transfected breast cancer cell line that expresses endogenous ERα; endogenous in cells; host or cells: T47D-KBluc
# Settings: 100 fold molar excess, 20 pM E2, 24 h
# Method: The T47D-KBluc cells stably express an (ERE)3-luciferase reporter gene (38). […] Four days before E2 induction, the cells were switched to the above medium, with 10% 2× charcoal-dextran-treated calf serum instead of FBS. 200,000 cells/well were transferred to each well of a 24-well plate. After 24 h the indicated concentrations of the test compounds were added in DMSO and E2 was added to 20 pM. After 24 h cells were washed once in PBS, and 150 μl 1× Passive Lysis Buffer (Promega, Madison Wis.) was used to lyse the cells. Luciferase activity was determined using firefly luciferase reagents from Promega (Madison, Wis.).
# Reporter Gene Assays. […] AR was assayed in stably transfected HeLa cells and GR was assayed in stably transfected T47D cells maintained as described above. Four days before each experiment the cells were switched to medium containing CD-treated serum as described above. The HeLaAR cells were plated at 100,000 cells/well and the T47D/A1-2 and T47D-KBluc cells were plated at 200,000 cells/well in 1 ml of their respective media in 24-well plates. After 24 hours the indicated concentrations of E2, dihydrotestosterone (DHT) or dexamethasone (Dex) and DMSO vehicle, with or without TPSF, were added to each well. […] Luciferase activity was determined using BrightGlo firefly luciferase reagent from Promega (Madison, Wis.).
substance,measurement,value
"Fulvestrant [ICI 182,780/Faslodex/Fulvestrant, reference compound]",effect on E2 activation of the (ERE)3-luciferase reporter gene,blocked activation
